The values below are quoted from earlier work in PMC3565575 (Bioorganic & medicinal chemistry, 2010).

Sequences of proteins named here, by UniProt entry; tags and fusion partners are left off.
UniProt Q60492, whole entry: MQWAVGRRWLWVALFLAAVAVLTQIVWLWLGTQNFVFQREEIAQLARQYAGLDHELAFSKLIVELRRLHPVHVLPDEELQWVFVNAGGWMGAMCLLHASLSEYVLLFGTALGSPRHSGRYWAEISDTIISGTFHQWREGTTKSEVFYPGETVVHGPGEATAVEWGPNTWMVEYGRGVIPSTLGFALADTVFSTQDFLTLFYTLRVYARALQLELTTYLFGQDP

SMILES strings stand for the structures. Where two headings read alike, the source gives them in different places.

The target in the data set is sigma-1 receptor (Cavia porcellus, UniProt Q60492). The following applies: read-out: Ki, sigma-1 receptor, cited from earlier work.

Broadly, the Ki is a measure of affinity in units of concentration, obtained from inhibition or displacement. For the compound `CC(Cc1ccc(C(C)(C)C)cc1)CN1C[C@@H](C)O[C@@H](C)C1` (stereo partly drawn) [fenpropimorph], the Ki is 0.005 nM (guinea pig cerebral sigma-1 receptor), 0.011 nM (guinea pig hepatic sigma-1 receptor) and 0.08 nM (yeast-expressed sigma-1 receptor).
